Values quoted from earlier work as cited in PMC9454457 (Journal of Nuclear Medicine, 2022).

Sequences of proteins named here, by UniProt entry; tags and fusion partners are left off. A change or cut given only in a name is not applied to a line headed by its entry.
UniProt P30550: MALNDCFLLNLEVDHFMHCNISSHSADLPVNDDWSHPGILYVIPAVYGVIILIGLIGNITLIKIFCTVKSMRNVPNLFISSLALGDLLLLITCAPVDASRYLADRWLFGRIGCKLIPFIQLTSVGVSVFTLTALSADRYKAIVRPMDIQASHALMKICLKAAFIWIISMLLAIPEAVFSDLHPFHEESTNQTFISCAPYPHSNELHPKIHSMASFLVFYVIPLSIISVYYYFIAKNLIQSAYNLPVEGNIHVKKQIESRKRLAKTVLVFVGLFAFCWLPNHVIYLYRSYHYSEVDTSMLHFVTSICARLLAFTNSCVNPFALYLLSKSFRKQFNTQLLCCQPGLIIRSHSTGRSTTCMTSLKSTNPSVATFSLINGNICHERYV

Biological target: T1, GRPR (Homo sapiens, UniProt P30550)
T1 construct: endogenous in cells; host or cells: PC-3 cells
Parameters: method as in PMID 20717822, PMID 29137110, PMID 29556947, PMID 25684649
Conditions: literature values; read-out: IC50 values reported; cited from earlier work

## ^natIn-RM2: natIn complex of RM2, literature value
  IC50: 9.3 nM
